# In article PMC10767396, “Structure‐Based Discovery of A Small Molecule Inhibitor of Histone Deacetylase 6 (HDAC6) that Significantly Reduces Alzheimer's Disease Neuropathology” (Advanced Science, 2023):
# Experiments:
# [1] = test system: HDAC6 enzyme; conditions: HDAC6 vs HDAC1
# Procedure: Compounds were tested in a single well for each dilution, and the final concentration of DMSO in all assays was kept at 1%.
# [2] = test system: BV2 cells; experiment: Microglial Aβ phagocytosis, MSD Aβ peptide panel 1 (4G8); format: cell-based, murine; conditions: Aβ42 2 µg/mL + PB118 500 and 1000 nM, 6 h
# Procedure: This study utilized microglial BV2 cells and tested the newly developed PB118 to see whether it could reduce microglia‐related neuroinflammation using lipopolysaccharide (LPS), a well‐characterized inflammatory inducer. Briefly, for microglia‐related amyloid (Aβ) phagocytosis study, BV2 cells were seeded in a 6‐well confocal dish (400k cells mL^−1) and cultured overnight for ≈90% confluency. Then, cells were treated with DMSO (vehicle) and Aβ (2 µg mL^−1) alone or in combination with 500 and 1000 nM of PB118 in serum‐free complete media for 6 h. Then, media were collected to perform the LDH assay for cell cytotoxicity assessment. Cells were washed carefully with PBS (2x) and lysed by adding 200 µL of MPER++ (10 mL MPER with 1% protease cocktail inhibitor and 1% EDTA) in each well. Cell lysates were collected in 1.5 mL Eppendorf tube and centrifuged at 12 000 rpm at 4 °C for 15 min and supernatants were collected for further studies. Total protein was quantified using the BCA protein assay kit (Pierce). […]
# (§1) MSD immunoassays are quite robust and based on combining multiarray technology and electrochemiluminescence to identify numerous proteins in a single sample. […] Also, the change in different inflammatory cytokines levels was measured by multiplex MSD‐cytokines assay after inducing the cells with lipopolysaccharides (LPS) and treating with different concentrations of PB118. […]
# [3] = test system: 3D human neural stem cell model of AD (ReNcell VM); experiment: MSD phospho (Thr231)/total tau and Aβ (6E10) assay in 3D-AD culture; format: cell-based; conditions: PB118 1 or 5 µM, 3 weeks
# Procedure: Human precursor ReN cells were used to prepare 3D AD environment following previous work.^[ [30] ^] Briefly, for 3D layers of cells, BD Matrigel stock solution (BD Biosciences) was diluted with ReN cell differentiation medium (in 1:15 dilution) (chilled) followed by vertexing with the cell pellets for 20 s. A final cell concentration of ≈2 × 10^6 cells mL^−1 was used and this cell/ Matrigel mixtures were immediately transferred ([…] in each) into an Optilux clear bottom 96‐well plates (BD Biosciences). A thin layer ([…]) of 3D gels was formed at the bottom of the plates after incubating the plates at 37 °C for 1 h and the media were changed. For differentiation before drug treatment, 3D‐plated cells were cultured for 6 weeks, and the media were changed every 3–4 days. […] Supernatants were collected and further analyzed by MSD immunoassay kit and western blot analysis.
# as §1
compound,measurement,setting,value
O=C(NO)c1ccc(CN2CCCCc3ccccc32)c(F)c1 [PB118],selectivity towards HDAC6 compared to HDAC1,[1],> 1000 times
same,Aβ42/Aβ40 ratio in cell lysates,[2],did not find significant changes
same,ratio of Aβ42/Aβ40,[3],did not change
same,ratio of p-tau/total tau,[3],not changed
